Several values for one entry are separate records, joined by “and”; a condition that tells them apart may be missing. Equal entries are not always repeated.

Amino acid sequences for entries named in this document (tags omitted). A change or cut given only in a name is not applied to a line headed by its entry.
UniProt P35372, whole entry, looked up: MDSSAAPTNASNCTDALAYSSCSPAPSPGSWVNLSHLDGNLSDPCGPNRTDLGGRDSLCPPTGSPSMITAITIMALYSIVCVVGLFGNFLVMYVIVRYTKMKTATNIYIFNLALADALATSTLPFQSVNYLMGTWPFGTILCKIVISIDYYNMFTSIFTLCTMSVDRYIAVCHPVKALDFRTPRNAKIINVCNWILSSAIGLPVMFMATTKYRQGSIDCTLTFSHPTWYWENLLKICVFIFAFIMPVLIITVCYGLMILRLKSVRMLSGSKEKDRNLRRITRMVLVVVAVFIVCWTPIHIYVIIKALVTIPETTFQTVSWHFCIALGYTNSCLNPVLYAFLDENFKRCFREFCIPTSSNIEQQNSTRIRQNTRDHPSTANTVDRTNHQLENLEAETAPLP
UniProt P41146: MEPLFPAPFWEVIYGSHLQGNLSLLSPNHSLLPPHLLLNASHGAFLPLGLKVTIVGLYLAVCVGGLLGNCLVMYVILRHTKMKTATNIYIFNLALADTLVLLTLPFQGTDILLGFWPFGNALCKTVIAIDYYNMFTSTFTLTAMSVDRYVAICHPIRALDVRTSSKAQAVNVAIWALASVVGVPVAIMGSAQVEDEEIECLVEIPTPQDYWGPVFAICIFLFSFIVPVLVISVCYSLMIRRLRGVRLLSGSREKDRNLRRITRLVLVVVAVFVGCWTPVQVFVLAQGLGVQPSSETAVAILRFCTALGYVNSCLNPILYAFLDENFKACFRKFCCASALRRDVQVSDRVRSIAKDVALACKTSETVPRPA

One test addresses Mu-type opioid receptor (Homo sapiens, UniProt P35372). Description: Human Mu-Opioid Peptide (hMOP) Receptor Binding Assay: The hMOP receptor binding assay was performed as homogeneous SPA-assay (scintillation proximity assay) using the assay buffer 50 mM TRIS-HCl (pH 7.4) supplemented with […] bovine serum albumin (Sigma-Aldrich Co. St. Louis. Mo.). The final assay volume (250 l/well) included 1 nM of [N-allyl-2.3-3H]naloxone as ligand (PerkinElmer Life Sc. Background: In a scintillation proximity assay essentially only radioactivity close to the scintillant gives light.

A further test addresses Nociceptin receptor (Homo sapiens, UniProt P41146). Description: Human Nociceptin/Orphanin FQ Peptide (hNOP) Receptor Binding Assay: The hNOP receptor binding assay was performed as homogeneous SPA-assay (scintillation proximity assay) using the assay buffer 50 mM TRIS-HCl. 10 mM MgCl2. 1 mM EDTA (pH 7.4). The final assay volume (250 μl/well) included 0.5 nM of [leucyl-3H]nociceptin as ligand (PerkinElmer Life Sciences. Inc. Boston. Mass. USA). and either test.

For the compound `CN[C@]1(c2ccccc2)CC[C@]2(CC1)CN(c1cnc(N3CCOCC3)nc1)C(=O)N2CC1(O)CCC1`, the Ki (in general, the equilibrium dissociation constant of an inhibitor or competing ligand from its target) worked out at 19 nM at Mu-type opioid receptor and 13 nM at Nociceptin receptor.

For the compound `CN(C)[C@]1(c2ccccc2)CC[C@]2(CC1)CN(c1ncc(F)cn1)C(=O)N2`, the Ki amounted to 2490 nM at Mu-type opioid receptor and 145 nM on Nociceptin receptor.

In the case of `CN(C)[C@]1(c2ccccc2)CC[C@]2(CC1)CN(c1cnc(C(=O)NCCO)nc1)C(=O)N2`, the Ki worked out at 1690 nM at Mu-type opioid receptor and 59 nM at Nociceptin receptor.

Consider `COCCN1C(=O)N(c2ccccc2)C[C@]12CC[C@](c1ccccc1)(N(C)C)CC2`, for which the Ki on Mu-type opioid receptor was found to be 215 nM; on Nociceptin receptor it was 94.5 nM.

As for `CN(C)[C@]1(c2ccccc2)CC[C@]2(CC1)CN(c1cnccc1C#N)C(=O)N2CC1CC1`, the figures for the Ki on Mu-type opioid receptor and at Nociceptin receptor were 465 nM and 18 nM, respectively.

For `CN(C)[C@]1(c2ccccc2)CC[C@]2(CC1)CN(c1cnc(-c3ccncc3)nc1)C(=O)N2`, the Ki was 4230 nM on Mu-type opioid receptor and 5 nM at Nociceptin receptor.

For `CN(C)[C@]1(c2ccccc2)CC[C@]2(CC1)CN(c1cccc(S(C)(=O)=O)c1)C(=O)N2`, the Ki at Mu-type opioid receptor worked out at 130 nM; on Nociceptin receptor, 145 nM.

For the compound `CN(C)[C@]1(c2ccccc2)CC[C@]2(CC1)CN(c1ccc3ncncc3c1)C(=O)N2`, the Ki at Mu-type opioid receptor was 5410 nM; at Nociceptin receptor, 102 nM.

With `COCCN1C(=O)N(c2cnc(C#N)nc2OC)C[C@]12CC[C@](c1ccccc1)(N(C)C)CC2`, the Ki was found to be 2100 nM on Mu-type opioid receptor and 10.1 nM at Nociceptin receptor.

On to `COC(=O)CN1CCN(c2ncc(N3C[C@]4(CC[C@](c5ccccc5)(N(C)C)CC4)NC3=O)cn2)CC1`, for which the Ki amounted to 7670 nM at Mu-type opioid receptor and 18 nM on Nociceptin receptor.

As for `CN(C)[C@]1(c2ccccc2)CC[C@]2(CC1)CN(c1cnccc1CS(C)(=O)=O)C(=O)N2`, the Ki at Mu-type opioid receptor is 3460 nM; at Nociceptin receptor, 15 nM.

As for `CN(C)[C@]1(c2ccccc2)CC[C@]2(CC1)CN(c1cccc(F)c1)C(=O)N2`, the Ki at Mu-type opioid receptor was 800 nM; at Nociceptin receptor it was 66 nM.

`CN(C)[C@]1(c2ccccc2)CC[C@]2(CC1)CN(c1cnc(N3CCS(=O)(=O)CC3)nc1)C(=O)N2`: the Ki on Mu-type opioid receptor came to 6900 nM; at Nociceptin receptor, 18 nM.

As for `Cc1cccc(N2C[C@]3(CC[C@](c4ccccc4)(N(C)C)CC3)NC2=O)c1`, the Ki stood at 2240 nM on Mu-type opioid receptor and 87 nM at Nociceptin receptor.

On to `CN(C)[C@]1(c2ccccc2)CC[C@]2(CC1)CN(c1ccc(-c3ccccn3)s1)C(=O)N2CC1CCC1`, for which the values for the Ki on Mu-type opioid receptor and on Nociceptin receptor were 117 nM and 12 nM, respectively.

In the case of `CN(C)C(=O)CN1C(=O)N(c2ccccc2)C[C@]12CC[C@](c1ccccc1)(N(C)C)CC2`, the Ki on Mu-type opioid receptor is 355 nM; at Nociceptin receptor, 160 nM.

Take `Cc1nc(N2CCOCC2)ncc1N1C[C@]2(CC[C@](c3ccc(Cl)s3)(N(C)C)CC2)NC1=O`: the values for the Ki on Mu-type opioid receptor and on Nociceptin receptor were 3540 nM and 125 nM, respectively.

Consider `CN(C)[C@]1(c2ccccc2)CC[C@]2(CC1)CN(c1ccc(N3CCS(=O)(=O)CC3)nc1)C(=O)N2`, for which the values for the Ki on Mu-type opioid receptor and at Nociceptin receptor were 4090 nM and 25 nM, respectively.

`CN(C)[C@]1(c2ccccc2)CC[C@]2(CC1)CN(c1ccc3c(c1)OCO3)C(=O)N2`: the Ki turned out to be 1240 nM at Mu-type opioid receptor and 15 nM on Nociceptin receptor.

As for `CN(C)[C@]1(c2ccccc2)CC[C@]2(CC1)CN(c1cnc(N3CCOCC3)c(C#N)c1)C(=O)N2`, the Ki was 3980 nM on Mu-type opioid receptor and 8 nM on Nociceptin receptor.

Regarding `CC(C)c1cn(-c2ncc(N3C[C@]4(CC[C@](c5ccccc5)(N(C)C)CC4)NC3=O)cn2)nn1`, the Ki on Mu-type opioid receptor was 4850 nM; at Nociceptin receptor, 15 nM.

Take `CN[C@]1(c2ccccc2)CC[C@]2(CC1)CN(c1cncnc1)C(=O)N2CC1(O)CCC1`: the Ki was 240 nM on Mu-type opioid receptor and 150 nM at Nociceptin receptor.

As to `Cc1nc(N2CCS(=O)(=O)CC2)ncc1N1C[C@]2(CC[C@](c3ccccc3)(N(C)C)CC2)NC1=O`, the results for the Ki at Mu-type opioid receptor and on Nociceptin receptor were 4270 nM and 27 nM, respectively.

For `CN(C)[C@]1(c2ccccc2)CC[C@]2(CC1)CN(c1ccc(S(C)(=O)=O)nc1)C(=O)N2`, the figures for the Ki at Mu-type opioid receptor and on Nociceptin receptor were 5720 nM and 13 nM, respectively.

As for `CN(C)[C@]1(c2ccccc2)CC[C@]2(CC1)CN(c1ccccc1CS(C)(=O)=O)C(=O)N2`, the Ki on Mu-type opioid receptor was found to be 3320 nM; on Nociceptin receptor, 27 nM.

For `CN[C@]1(c2ccccc2)CC[C@]2(CC1)CN(c1cnc(C#N)cc1C)C(=O)N2CC1CCC1`, the Ki stood at 300 nM at Mu-type opioid receptor and 4.6 nM at Nociceptin receptor.

Turning to `CN[C@]1(c2ccccc2)CC[C@]2(CC1)CN(c1cnc(OC)cn1)C(=O)N2CC1CCC1`, the Ki at Mu-type opioid receptor came out at 136 nM; on Nociceptin receptor it was 5 nM.

Regarding `COc1ccc(N2C[C@]3(CC[C@](c4ccccc4)(N(C)C)CC3)NC2=O)cn1`, the Ki on Mu-type opioid receptor turned out to be 2470 nM; on Nociceptin receptor, 20 nM.

With `Cc1noc(C)c1-c1ncc(N2C[C@]3(CC[C@](c4ccccc4)(N(C)C)CC3)NC2=O)cn1`, the Ki at Mu-type opioid receptor amounted to 3740 nM; at Nociceptin receptor, 13 nM.

`Cc1cc(-c2ccncc2)ncc1N1C[C@]2(CC[C@](c3ccccc3)(N(C)C)CC2)NC1=O`: the Ki on Mu-type opioid receptor came to 4270 nM; at Nociceptin receptor it was 8 nM.

As for `COCCN1C(=O)N(c2cnc(C#N)cn2)C[C@]12CC[C@](c1ccccc1)(N(C)C)CC2`, the Ki worked out at 515 nM on Mu-type opioid receptor and 19.5 nM on Nociceptin receptor.

Consider `CN(C)[C@]1(c2ccccc2)CC[C@]2(CC1)CN(c1ccc(C(N)=O)cc1F)C(=O)N2`, for which the Ki at Mu-type opioid receptor came out at 880 nM; at Nociceptin receptor it was 30 nM.

As to `CN(C)[C@]1(c2ccccc2)CC[C@]2(CC1)CN(c1cnccn1)C(=O)N2`, the Ki on Mu-type opioid receptor came to 2420 nM; at Nociceptin receptor, 120 nM.

With `CN(C)[C@]1(c2cccs2)CC[C@]2(CC1)CN(c1cnc(C(F)(F)F)nc1)C(=O)N2`, the Ki amounted to 3750 nM at Mu-type opioid receptor and 18 nM at Nociceptin receptor.

Consider `CN(C)[C@]1(c2ccccc2)CC[C@]2(CC1)CN(c1cnc(C(F)(F)F)nc1)C(=O)N2CC1CCC1`, for which the Ki on Mu-type opioid receptor was 37.2 nM and 110 nM; on Nociceptin receptor it was 0.4 nM and 1 nM.

For the compound `CN(C)[C@]1(c2ccccc2)CC[C@]2(CC1)CN(c1ccc3nc(N4CCOCC4)ncc3c1)C(=O)N2`, the Ki at Mu-type opioid receptor was determined as 980 nM; on Nociceptin receptor, 22 nM.

In the case of `COCCOCCOCCOCCNC(=O)c1ncc(N2C[C@]3(CC[C@](c4ccccc4)(N(C)C)CC3)NC2=O)cn1`, the results for the Ki on Mu-type opioid receptor and on Nociceptin receptor were 6150 nM and 155 nM, respectively.

Consider `CN(C)[C@]1(c2ccccc2)CC[C@]2(CC1)CN(c1cnc(-c3ccccc3)nc1)C(=O)N2`, for which the Ki worked out at 5580 nM at Mu-type opioid receptor and 13 nM at Nociceptin receptor.

Take `CN(C)[C@]1(c2ccccc2)CC[C@]2(CC1)CN(c1cnc(C#N)nc1)C(=O)N2CC1CCC1`: the results for the Ki at Mu-type opioid receptor and at Nociceptin receptor were 120 nM and 0.3 nM, respectively.

As for `CSc1cc(N2C[C@]3(CC[C@](c4ccccc4)(N(C)C)CC3)N(CC3CCC3)C2=O)ncn1`, the figures for the Ki on Mu-type opioid receptor and on Nociceptin receptor were 940 nM and 25 nM, respectively.

Take `Cn1nc(C(F)(F)F)cc1N1C[C@]2(CC[C@](c3cccc(F)c3)(N(C)C)CC2)N(CC2CC2)C1=O`: the values for the Ki on Mu-type opioid receptor and at Nociceptin receptor were 925 nM and 12 nM, respectively.

For the compound `CN(C)[C@]1(c2ccccc2)CC[C@]2(CC1)CN(c1ccccc1CS(C)(=O)=O)C(=O)N2CC1CC1`, the Ki on Mu-type opioid receptor came to 115 nM; at Nociceptin receptor it was 15 nM.

With `CC(=O)Nc1ncc(N2C[C@]3(CC[C@](c4ccccc4)(N(C)C)CC3)NC2=O)cn1`, the figures for the Ki at Mu-type opioid receptor and at Nociceptin receptor were 5530 nM and 27 nM, respectively.

As for `Cn1nc(C(F)(F)F)cc1N1C[C@]2(CC[C@](c3cccs3)(N(C)C)CC2)NC1=O`, the inhibitory constant (Ki) at Mu-type opioid receptor turned out to be 4280 nM; at Nociceptin receptor, 13 nM.

`Cc1ccc(N2C[C@]3(CC[C@](c4ccccc4)(N(C)C)CC3)NC2=O)cc1`: the Ki is 1060 nM at Mu-type opioid receptor and 25 nM at Nociceptin receptor.

Turning to `CN(C)[C@]1(c2ccccc2)CC[C@]2(CC1)CN(c1cnc(N3CCCC3)nc1)C(=O)N2`, the Ki at Mu-type opioid receptor amounted to 2010 nM; on Nociceptin receptor, 15 nM.

For the compound `Cc1nc(N2CCOCC2)ncc1N1C[C@]2(CC[C@](c3ccccc3)(N(C)C)CC2)NC1=O`, the figures for the Ki at Mu-type opioid receptor and at Nociceptin receptor were 4580 nM and 14 nM, respectively.

For the compound `N[C@]1(c2ccccc2)CC[C@]2(CC1)CN(c1cnc(C(F)(F)F)nc1)C(=O)N2CC1(O)CCC1`, the Ki on Mu-type opioid receptor amounted to 3060 nM; on Nociceptin receptor, 540 nM.

For the compound `COc1cc(C)c(N2C[C@]3(CC[C@](c4ccccc4)(N(C)C)CC3)NC2=O)cn1`, the Ki was 4020 nM at Mu-type opioid receptor and 19 nM at Nociceptin receptor.

Take `COc1ccccc1CN1C(=O)N(c2cnc(C)nc2)C[C@]12CC[C@](c1ccccc1)(N(C)C)CC2`: the Ki came out at 240 nM at Mu-type opioid receptor and 22 nM on Nociceptin receptor.

For `CN(C)[C@]1(c2ccccc2)CC[C@]2(CC1)CN(c1cnc(-n3ccc4cccnc43)nc1)C(=O)N2`, the Ki at Mu-type opioid receptor worked out at 7650 nM; on Nociceptin receptor, 19 nM.

As to `Cc1ncc(N2C[C@]3(CC[C@](c4ccccc4)(N(C)C)CC3)NC2=O)c(N2CCC2)n1`, the Ki on Mu-type opioid receptor came out at 5430 nM; on Nociceptin receptor it was 255 nM.

`CN(CC(N)=O)c1ncc(N2C[C@]3(CC[C@](c4ccccc4)(N(C)C)CC3)NC2=O)cn1`: the Ki was found to be 2580 nM on Mu-type opioid receptor and 19 nM at Nociceptin receptor.

As to `CN(C)[C@]1(c2ccccc2)CC[C@]2(CC1)CN(c1cnccc1C#N)C(=O)N2`, the Ki was determined as 4680 nM at Mu-type opioid receptor and 32 nM on Nociceptin receptor.

In the case of `CN(C)[C@]1(c2ccccc2)CC[C@]2(CC1)CN(c1ccc(N3CCNCC3)nc1)C(=O)N2`, the Ki worked out at 675 nM at Mu-type opioid receptor and 5 nM on Nociceptin receptor.

Take `CN(C)[C@]1(c2ccccc2)CC[C@]2(CC1)CN(c1cncc3ccccc13)C(=O)N2`: the values for the Ki on Mu-type opioid receptor and on Nociceptin receptor were 565 nM and 22 nM, respectively.

Consider `CN(C)[C@]1(c2ccccc2)CC[C@]2(CC1)CN(c1ccnc3[nH]ccc13)C(=O)N2`, for which the inhibition constant (Ki) at Mu-type opioid receptor stood at 1020 nM; at Nociceptin receptor, 31 nM.

With `CN[C@]1(c2ccccc2)CC[C@]2(CC1)CN(c1cnc(C#N)nc1)C(=O)N2CC1(C#N)CCC1`, the Ki was 7.8 nM at Mu-type opioid receptor and 5 nM on Nociceptin receptor.

Source of the values: ChEMBL document CHEMBL5728057, “3-((hetero-)aryl)-8-amino-2-oxo-1,3-diaza-spiro-[4.5]-decane derivatives” (2020).
